The record followed here is patent US6476076B1 (priority 1999, dated 2002).

Protein sequences, listed by entry. Tags and fused reporters are not part of them.
UniProt O35433, whole entry: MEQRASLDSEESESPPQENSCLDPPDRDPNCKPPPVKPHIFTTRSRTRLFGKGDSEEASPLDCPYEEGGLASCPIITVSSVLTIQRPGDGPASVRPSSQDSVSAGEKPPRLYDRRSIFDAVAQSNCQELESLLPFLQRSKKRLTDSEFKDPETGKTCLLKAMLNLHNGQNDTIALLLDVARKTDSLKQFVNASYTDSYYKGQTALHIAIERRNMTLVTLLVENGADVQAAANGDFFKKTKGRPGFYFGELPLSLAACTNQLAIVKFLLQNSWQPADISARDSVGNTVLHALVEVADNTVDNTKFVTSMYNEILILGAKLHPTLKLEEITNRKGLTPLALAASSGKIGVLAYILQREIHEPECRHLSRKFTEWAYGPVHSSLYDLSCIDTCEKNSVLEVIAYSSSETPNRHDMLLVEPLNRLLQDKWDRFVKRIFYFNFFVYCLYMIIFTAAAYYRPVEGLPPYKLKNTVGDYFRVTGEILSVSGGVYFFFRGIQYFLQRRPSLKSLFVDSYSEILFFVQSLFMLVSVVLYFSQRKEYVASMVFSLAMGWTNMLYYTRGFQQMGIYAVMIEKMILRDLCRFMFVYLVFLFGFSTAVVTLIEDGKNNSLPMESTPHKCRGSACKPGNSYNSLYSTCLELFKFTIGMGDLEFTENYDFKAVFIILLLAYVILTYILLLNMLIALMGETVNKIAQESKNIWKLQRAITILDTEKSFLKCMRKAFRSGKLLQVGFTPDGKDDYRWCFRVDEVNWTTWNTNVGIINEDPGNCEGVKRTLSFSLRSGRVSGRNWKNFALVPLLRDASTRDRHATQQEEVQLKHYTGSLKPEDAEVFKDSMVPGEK

pKi: −log10 of the molar value.

The target in the experiment is T1, vanilloid receptor (rat spinal cord membrane preparations) (Rattus norvegicus, UniProt O35433).
T1 construct: determined on membrane preparations from rat spinal cord; from tissue; host or cells: rat spinal cord membranes
Type of experiment: binding. As to conditions: read-out: Affinities (Ki).
Take “2-(3,4-Dimethylbenzyl)-3-{[(4-hydroxy-3-methoxybenzyl)amino]carbothioyl}propyl Pivalate [7b-I]”: the pKi is 7.72.

Turning to “2-(4-Chlorobenzyl)-3-{[(4-hydroxy-3-methoxybenzyl)amino]carbothioyl}propyl Benzoate [7c-V]”, the pKi is 6.83.

“2-(4-t-Butylbenzyl)-3-{[(4-hydroxy-3-methoxybenzyl)amino]carbothioyl}propyl Pivalate [7d-I]”: the pKi is 7.97.

As for “2-Benzyl-3-{[(4-hydroxy-3-methoxybenzyl)amino]carbothioyl}propyl Benzoate [7a-V]”, the pKi is 7.51.

With “2-Benzyl-3-{[(4-hydroxy-3-methoxybenzyl)amino]carbothioyl}propyl Pivalate [7a-I]”, the pKi is 7.18.

As for “(S)-2-Benzyl-3-{[(4-hydroxy-3-methoxybenzyl)amino]carbothioyl}propyl Pivalate [(S)-7a-I]”, the pKi was 7.13.
